# Results as given in patent US20250161478A1, “LINKER PAYLOADS AND CONJUGATES THEREOF” (priority 2021, published 2025).
# What was measured:
# [1] = Conjugate stability in mouse serum; details: mouse serum at +37° C., overnight and four days, MALDI-TOF MS
# [2] = HSA 40 mg/ml, PBS pH 7.4, 37° C.
# [3] = PBS at 37° C. for 24 h (pH 7.4), MALDI-TOF MS
Substance,linker stability in serum [1],DAR at start of incubation ([2]; 0 days),DAR at end of incubation ([2]; 10 days),maleimide stabilization by hydrolysis [3]
glutathione-maleimidocaproyl-Val-Cit-PAB-MMAU,relatively unstable in serum,,,
trastuzumab-maleimidoacetyl-β-Ala-Val-Ser(Glc)-PAB-MMAU [TRAuM],,7.8,7.2,effectively stabilized by hydrolysis during the 24 h incubation
